Laboratory results: patent US9132198B2, “Mitochondrial penetrating peptides as carriers for anticancer compounds” (priority 2011, dated 2015)

Tested on: leukemia cell lines (K562, M2, HL60, U937)
Details: 3 μM staurosporine, overnight

CN[C@@H]1C[C@H]2O[C@@](C)([C@@H]1OC)n1c3ccccc3c3c4c(c5c6ccccc6n2c5c31)C(=O)NC4 [Staurosporine, staurosporine]
cell death induced: less cell death in the K562 and M2 cell lines compared to HL60 and U937
